This is a selection; strong and weak results do not stand in their true shares. Active and inactive are the calls of the source. Rule as the data show it: active = inhibition above about 34%; inactive = the rest.

By UniProt entry, the sequences of proteins in these tests, tags left out. Where a name states a change or a piece, a line headed by the entry shows the natural chain unless it says otherwise.
UniProt Q8NCG7: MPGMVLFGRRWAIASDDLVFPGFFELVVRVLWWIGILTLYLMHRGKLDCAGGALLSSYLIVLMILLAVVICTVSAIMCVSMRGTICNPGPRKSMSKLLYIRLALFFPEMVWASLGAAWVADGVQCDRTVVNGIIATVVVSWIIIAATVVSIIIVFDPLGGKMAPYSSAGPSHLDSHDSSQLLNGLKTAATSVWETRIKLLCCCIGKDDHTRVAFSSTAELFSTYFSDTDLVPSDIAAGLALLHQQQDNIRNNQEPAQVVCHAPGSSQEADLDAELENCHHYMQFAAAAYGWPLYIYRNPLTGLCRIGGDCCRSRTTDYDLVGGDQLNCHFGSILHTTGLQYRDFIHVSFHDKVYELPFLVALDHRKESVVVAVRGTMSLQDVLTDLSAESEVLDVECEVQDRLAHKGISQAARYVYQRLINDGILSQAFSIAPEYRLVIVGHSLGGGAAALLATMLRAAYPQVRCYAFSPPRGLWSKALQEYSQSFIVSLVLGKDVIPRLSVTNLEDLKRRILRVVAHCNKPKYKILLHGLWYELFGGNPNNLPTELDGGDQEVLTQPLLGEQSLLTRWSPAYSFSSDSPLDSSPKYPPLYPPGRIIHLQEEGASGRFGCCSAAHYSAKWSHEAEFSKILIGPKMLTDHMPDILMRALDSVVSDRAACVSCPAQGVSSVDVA

The target of the test is Diacylglycerol lipase-beta (Homo sapiens) (UniProt Q8NCG7). The test can be described thus: DAGLB lipase inhibitors, primary screen, biochemical, fluorescence, HTS (AID 504411).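 Also: 0% = enzyme with vehicle and 100% = wells lacking enzyme.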 Particulars: HEK293T DAGLB membrane lysate, EnzChek fluorogenic substrate; at 5.17 µM; hits give high values.
Regarding `O=[N+]([O-])c1ncn(CCn2ncnc2[N+](=O)[O-])n1`, the inhibition – broadly, the drop in the measured response relative to a control, in per cent – is inactive: 0.47%.
In the case of `CC(C)(C)C(=O)NC(Sc1ccncn1)C(Cl)(Cl)Cl` (configuration not stated), the inhibition is inactive: 1.45%.
Take `O=C(O)CNc1ccc([As](=O)(O)O)cc1`: the inhibition is inactive: -1.06%.
The result for `O=[N+]([O-])c1cccc(NC2=NCC(CBr)S2)c1` (configuration not stated) reads inactive: 0.1%.
On to `COC(=O)C1(C)COP(=O)(Nc2ccccc2)OC1` (configuration not stated), for which the inhibition was inactive: -0.66%.
As for `O=P1(N(CCCl)CCCl)OCCCS1` (configuration not stated), the inhibition was inactive: -0.2%.
For the compound `O=C(Nc1cc([As](=O)(O)O)ccc1O)c1ccccc1`, the inhibition was inactive: 0.15%.
With `CCN(/C(=N/P(=O)(N1CCOCC1)N1CCOCC1)N1CCOCC1)c1ccc(OC)cc1`, the inhibition was inactive: 2.06%.
As for `Nc1ccc([As](=O)(O)c2ccc(N)cc2)cc1`, the inhibition was inactive: 0.7%.
Consider `C[N+]1=C2C=CC=CC=C2SC12C([N+](=O)[O-])=CC([N+](=O)[O-])=C[C-]2[N+](=O)[O-]` (configuration not stated), for which the inhibition is inactive: 11.4%.
In the case of `c1cc(-c2nn[nH]n2)ccc1-c1nn[nH]n1`, the inhibition is inactive: 0.67%.
Turning to `CC1CCN(C(=O)Oc2c(Cl)cc(Cl)c3cccnc23)CC1`, the inhibition is inactive: -7.21%.
As for `CC(C)=N/N=C(\N)N[N+](=O)[O-]`, the inhibition is inactive: 0.29%.
In the case of `CC(C)c1nc(Nc2ccccc2)n(P(=O)(N(C)C)N(C)C)n1`, the inhibition was inactive: -4.28%.
For the compound `CN(C)C(=O)OCCc1n(C)cc[n+]1C`, the inhibition is inactive: -2.42%.
With `COc1ccc(C2=NCC(CBr)S2)cc1` (configuration not stated), the inhibition is inactive: -2.15%.
The result for `Cc1ccc(NP(=O)(Oc2ccccc2)Oc2ccccc2)nc1` reads inactive: -0.03%; that for `O=[N+]([O-])c1cc([N+](=O)[O-])c(CCNc2ccccc2)c([N+](=O)[O-])c1`, inactive: 14.4%.
`CCc1nc2c(n1)c1c(non1O)c1c2no[n+]1[O-]`: the inhibition is inactive: 0.32%.
Regarding `CC(=O)N1C2C3N(C(C)=O)C1C1N(C(C)=O)C(C(N1C(C)=O)N3C(C)=O)N2C(C)=O`, the inhibition is inactive: -1.28%.
Take `O=[N+]([O-])c1cccc2n[nH]nc12`: the inhibition was inactive: -1.05%.
Consider `Oc1ccccc1CNc1ccccn1`, for which the inhibition is inactive: -0.38%.
Consider `O=C(NC(Sc1ccncn1)C(Cl)(Cl)Cl)c1ccccc1` (configuration not stated), for which the inhibition is inactive: 0.08%.
In the case of `CC(C)CC(=O)NC(Sc1ccc(Cl)cc1)C(Cl)(Cl)Cl` (configuration not stated), the inhibition is inactive: -6.86%.
For `Nc1cc(N)c2nonc2c1[N+](=O)[O-]`, the inhibition is inactive: -2.29%.
With `CN(C(=O)Cc1ccc(Cl)c(Cl)c1)[C@H]1CCCC[C@H]1N1CCCC1`, the inhibition is inactive: -0.41%.
As for `Cc1ccc(N/C(=N/P(=O)(N2CCOCC2)N2CCOCC2)N2CCOCC2)cc1`, the inhibition was inactive: 1.81%.
The result for `NC(=O)c1cc([N+](=O)[O-])cc([N+](=O)[O-])c1N` reads inactive: -0.11%; that for `Clc1ccc(Cl)c(NC2=NCC(CBr)S2)c1` (configuration not stated), inactive: 0.94%.
Regarding `CN1CCCC(OC(=O)C(c2ccccc2)c2ccccc2)C1` (configuration not stated), the inhibition is inactive: 1.22%.
Consider `COc1ccccc1OP(=O)(Nc1ccc(C)cn1)Oc1ccccc1OC`, for which the inhibition is inactive: -1.21%.
Take `Nc1cccc2ccc([As](=O)(O)O)cc12`: the inhibition was inactive: 0.21%.
As to `CCN(N=Nc1nonc1N)c1nonc1N`, the inhibition was inactive: -0.27%.
On to `CN(C)P(=O)(N(C)C)n1c(Nc2ccccc2)nnc1-c1ccccc1`, for which the inhibition was inactive: -6.89%.
For the compound `O=P(Nc1nc2ccc(Cl)cc2s1)(c1ccccc1)c1ccccc1`, the inhibition is inactive: -3.41%.
On to `O=C(O)c1ccccc1[As](=O)(O)O`, for which the inhibition is inactive: 0.5%.
With `CC(=O)Nc1ccc([As](=O)(O)O)cc1`, the inhibition is inactive: 1.12%.
The result for `CCCC1OP(N)(=O)OCC1CC` (configuration not stated) reads inactive: 0.19%.
For the compound `CCOP(=O)(Nc1ccccc1)OCC`, the inhibition is inactive: 3.87%.
For the compound `Cc1cc(SC(NC(=O)c2ccc(F)cc2)C(Cl)(Cl)Cl)ncn1` (configuration not stated), the inhibition is inactive: 3.51%.
In the case of `CN(C(=O)Cc1ccc(Cl)c(Cl)c1)[C@H]1CCCC[C@@H]1N1CCCC1`, the inhibition is inactive: 2.58%.
For `Cc1ccc(NP(=O)(Oc2ccccc2F)Oc2ccccc2F)nc1`, the inhibition is inactive: -0.97%.
For the compound `O=C(OC1CN2CCC1CC2)c1ccccc1` (configuration not stated), the inhibition was inactive: 0.15%.
For `CCC(=O)N1C2C3N(C(=O)CC)C1C1N(C(=O)CC)C(C(N1C(=O)CC)N3C(=O)CC)N2C(=O)CC`, the inhibition was inactive: -0.49%.
As to `COC(=O)c1cc2c(s1)N=C(c1ccccc1)N(C)P2(=O)N1CCOCC1` (configuration not stated), the inhibition is inactive: -1.49%.
Turning to `Cc1ccc(OP(=O)(Nc2ccccn2)Oc2ccc(C)cc2)cc1`, the inhibition was inactive: -3.87%.
Turning to `CC(=O)NC(SC(=S)N(CC(C)C)CC(C)C)C(Cl)(Cl)Cl` (configuration not stated), the inhibition is inactive: -2.31%.
Regarding `Cc1ccccc1OP(=O)(Nc1ccccn1)Oc1ccccc1C`, the inhibition is inactive: 0.69%.
In the case of `CC(NC(=O)COC(=O)C(O)(c1ccccc1)c1ccccc1)c1ccccc1` (configuration not stated), the inhibition was inactive: 1.23%.
Consider `CN(C)C(=O)Oc1noc2ccccc12`, for which the inhibition was inactive: -1.18%.
On to `O=c1c2cc([N+](=O)[O-])ccc2[nH]c2c([N+](=O)[O-])cc([N+](=O)[O-])cc12`, for which the inhibition is inactive: 11.4%.
Turning to `O=C(NC1CCS(=O)(=O)C1)NP(=S)(Oc1ccccc1)Oc1ccccc1` (configuration not stated), the inhibition was inactive: -4.96%.
For `CCNC(=S)/N=C(\N)N[N+](=O)[O-]`, the inhibition was inactive: -1.04%.
The result for `O=P1(N(CCCl)CCCl)OCCC2CCCCN21` (configuration not stated) reads inactive: 2.1%.
For `Cc1ccccc1CN(C)C(=O)COC(=O)C(O)(c1ccccc1)c1ccccc1`, the inhibition was inactive: -3.8%.
As to `C[C@@H]1C=CCP(=O)(Oc2ccccc2)O1` (some centres not stated), the inhibition is inactive: -1.52%.
Turning to `C[C@H]1OP(=O)(Oc2ccccc2)C[C@@H]2O[C@@H]21` (some centres not stated), the inhibition was inactive: 0.35%.
The result for `N#C/C(=C\c1ccc(N(CCBr)CCBr)cc1)C(N)=O` reads inactive: 0.78%; that for `CC(=O)c1ccc(N2CC2c2ccncc2)cc1` (configuration not stated), inactive: -1.97%.
`COC(=O)C1(C)COP(=O)(NCc2ccccc2)OC1` (configuration not stated): the inhibition is inactive: -1.86%.
For `CC(=O)Nc1ccc([As](=O)(O)O)c(O)c1`, the inhibition is inactive: 0.04%.
For the compound `CC(=O)Nc1ccc(Oc2c([N+](=O)[O-])cc([N+](=O)[O-])cc2[N+](=O)[O-])cc1`, the inhibition was inactive: 5.48%.
With `O=P1(Nc2nc3ccc(Cl)cc3s2)COc2ccccc2O1` (configuration not stated), the inhibition was inactive: 1.21%.
In the case of `CCOc1ccc(C2=NCC(CBr)S2)cc1` (configuration not stated), the inhibition was inactive: -0.01%.
With `CC(C)(C)C(=O)NC(Sc1ccccc1)C(Cl)(Cl)Cl` (configuration not stated), the inhibition was inactive: -3.97%.
As for `CCc1cc(O)c([N+](=O)[O-])c(C)c1[N+](=O)[O-]`, the inhibition is inactive: 2.85%.
As to `O=P(Nc1nccs1)(c1ccccc1)c1ccccc1`, the inhibition was inactive: -0.45%.
Turning to `CC(C)C(=O)NC(Sc1ccccc1)C(Cl)(Cl)Cl` (configuration not stated), the inhibition is inactive: 1.97%.
For `c1nnnn1CCn1cnnn1`, the inhibition was inactive: -0.71%.
With `O=[As](O)(c1ccccc1)c1ccc(O)cc1`, the inhibition is inactive: 0.06%.
For `O=[N+]([O-])c1ncn(CCn2cnc([N+](=O)[O-])n2)n1`, the inhibition was inactive: -0.27%.
The result for `CC(=O)NC(SC(=S)N(C)C)C(Cl)(Cl)Cl` (configuration not stated) reads inactive: -1.45%.
As for `O=[N+]([O-])c1ccc(O)c(/C=N/Nc2ccc([N+](=O)[O-])cc2[N+](=O)[O-])c1`, the inhibition was inactive: 3.78%.
With `O=C(OC1CN2CCC1CC2)c1cccc(Cl)c1` (configuration not stated), the inhibition was inactive: 0.2%.
The result for `Nc1ccc([As](=O)(O)c2ccc([N+](=O)[O-])cc2)cc1` reads inactive: 1.03%.
As for `C(Cc1nn[nH]n1)Cc1nn[nH]n1`, the inhibition is inactive: -1.33%.
Turning to `CN(C)C1(CNC(=O)c2ccc(Cl)c(S(N)(=O)=O)c2)CCCCC1`, the inhibition is inactive: 0.46%.
Consider `O=P(Nc1ccccn1)(c1ccc(Br)cc1)c1ccc(Br)cc1`, for which the inhibition is inactive: 1.56%.
Turning to `COc1ccc(N)c([N+](=O)[O-])c1[N+](=O)[O-]`, the inhibition was inactive: 10.7%.
Consider `O=P(Nc1nc2ccccc2s1)(c1ccccc1)c1ccccc1`, for which the inhibition is inactive: 0.66%.
In the case of `C[C@H]1OP(=O)(Oc2ccccc2)[C@H](O)[C@H](O)[C@H]1N=[N+]=[N-]` (some centres not stated), the inhibition is inactive: 0.02%.
As to `O=P1(Nc2ncccn2)COc2ccccc2OC1`, the inhibition was inactive: 1.32%.
For `Nc1cccc([As](=O)(O)c2ccccc2)c1`, the inhibition is inactive: -0.24%.
`NS(=O)(=O)c1cccc(NC(=O)COC(=O)C(O)(c2ccccc2)c2ccccc2)c1`: the inhibition is inactive: -1.95%.
As to `O=P1(Nc2ccc(Br)cn2)COc2ccccc2OC1`, the inhibition is inactive: -2.42%.
The result for `O=[As](O)(c1cccs1)c1cccs1` reads inactive: -3.36%.
As to `Cc1ccc(OCC(=O)OC2CN3CCC2CC3)cc1` (configuration not stated), the inhibition is inactive: -1.02%.
Consider `Cc1nn(-c2ccccc2)c2c1P(=O)(N1CCOCC1)N(C)C(c1ccccc1)=N2` (configuration not stated), for which the inhibition is inactive: 2.07%.
In the case of `Cc1ccc(C(=O)OC2CN3CCC2CC3)cc1` (configuration not stated), the inhibition was inactive: -0.86%.
The result for `CC1CCC(C(C)C)C(OP(=O)(Nc2ccccn2)c2ccccc2)C1` (configuration not stated) reads inactive: 1.22%; that for `CN(C)C1(CNC(=O)c2ccc(S(C)(=O)=O)cc2)CCCCC1`, inactive: -0.34%; that for `O=C(/C=C/c1ccccc1)OC1CN2CCC1CC2` (configuration not stated), inactive: -1.62%.
The result for `CCCC1OP(=O)(Nc2ccccc2)OCC1CC` (configuration not stated) reads inactive: -2.69%; that for `COc1ccccc1CNC(=O)COC(=O)C(O)(c1ccccc1)c1ccccc1`, inactive: 1.42%.
With `CN(C(=O)Cc1ccc(Cl)c(Cl)c1)[C@@H]1CCCC[C@H]1N1CCCC1`, the inhibition is inactive: 2.73%.
For the compound `CC(C)/C=N\N=C(\N)N[N+](=O)[O-]`, the inhibition was inactive: -2.24%.
In the case of `CC1(CBr)Cn2c(nc3ccccc3c2=O)S1` (configuration not stated), the inhibition was inactive: 1.76%.
`CCC1=CC2Cc3nc4ccc(Cl)cc4c(N)c3C(C1)C2` (configuration not stated): the inhibition was inactive: 1.19%.
The result for `O=P1(Nc2ccccn2)COc2ccccc2OC1` reads inactive: -2.39%; that for `CCOP(=O)(NC(=NC(C)c1ccccc1)NC(C)c1ccccc1)OCC` (configuration not stated), inactive: -3.64%.
The result for `CCOP(=O)(Nc1ccc(C)cn1)OCC` reads inactive: 0.8%; that for `Clc1n[nH]nc1-c1nn[nH][15n]1`, inactive: -6.94%.

These data come from PubChem BioAssay AID504411 (The Scripps Research Institute Molecular Screening Center, 2011).
